From ChEMBL document CHEMBL1126972, “Synthesis of 2-imidazolidinylidenepropanedinitrile derivatives as stimulators of gastrointestinal motility” (J Med Chem, 1993)

Organism: Cavia porcellus
Test: In vitro gastrointestinal motility enhancing activity was determined by potentiating action on electrically evoked contraction of the isolated guinea pig ileum;No effect.
Format: functional

Compound: Oc1nc2ccccc2n1CCNCc1ccc(CN2CCCCC2)o1
- EC30: No effect
